The values that follow come from US9539260B2, “Dihydro-benzo-oxazine and dihydro-pyrido-oxazine derivatives” (Novartis AG, priority 2012, dated 2017).

The chains behind the UniProt entries cited, without tags or fusion partners. Where a name states a change or a piece, a line headed by the entry shows the natural chain unless it says otherwise. A line that says so, or that is headed by a name, gives the form on record, which may keep a tag or linker.
UniProt O00329: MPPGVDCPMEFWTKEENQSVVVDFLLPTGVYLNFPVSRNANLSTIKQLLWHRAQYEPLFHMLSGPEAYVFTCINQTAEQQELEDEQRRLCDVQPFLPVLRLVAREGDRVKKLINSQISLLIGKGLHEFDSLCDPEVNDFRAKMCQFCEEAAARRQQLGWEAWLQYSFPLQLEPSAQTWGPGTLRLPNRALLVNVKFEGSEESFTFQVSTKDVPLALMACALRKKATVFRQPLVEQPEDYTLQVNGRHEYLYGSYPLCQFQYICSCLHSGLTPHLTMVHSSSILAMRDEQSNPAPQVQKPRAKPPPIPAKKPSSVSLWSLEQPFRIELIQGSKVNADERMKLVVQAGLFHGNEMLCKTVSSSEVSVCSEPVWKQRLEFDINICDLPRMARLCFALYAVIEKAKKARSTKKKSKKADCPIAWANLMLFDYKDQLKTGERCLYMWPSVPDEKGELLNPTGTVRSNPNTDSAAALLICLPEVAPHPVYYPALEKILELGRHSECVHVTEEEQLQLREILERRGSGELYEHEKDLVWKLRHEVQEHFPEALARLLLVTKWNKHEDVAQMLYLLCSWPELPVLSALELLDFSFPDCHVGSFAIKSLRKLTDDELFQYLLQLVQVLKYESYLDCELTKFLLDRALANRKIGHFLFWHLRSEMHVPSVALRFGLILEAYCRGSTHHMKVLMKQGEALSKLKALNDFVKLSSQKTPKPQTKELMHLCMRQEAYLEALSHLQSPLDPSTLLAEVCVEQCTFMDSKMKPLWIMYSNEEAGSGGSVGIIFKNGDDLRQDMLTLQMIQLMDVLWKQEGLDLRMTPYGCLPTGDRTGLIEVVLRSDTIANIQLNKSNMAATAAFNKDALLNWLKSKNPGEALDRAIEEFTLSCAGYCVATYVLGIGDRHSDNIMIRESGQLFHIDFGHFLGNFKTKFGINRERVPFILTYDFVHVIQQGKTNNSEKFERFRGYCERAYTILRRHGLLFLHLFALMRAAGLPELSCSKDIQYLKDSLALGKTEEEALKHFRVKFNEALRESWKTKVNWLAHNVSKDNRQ
UniProt P42336, other isoform, or with tags, fused parts or gaps: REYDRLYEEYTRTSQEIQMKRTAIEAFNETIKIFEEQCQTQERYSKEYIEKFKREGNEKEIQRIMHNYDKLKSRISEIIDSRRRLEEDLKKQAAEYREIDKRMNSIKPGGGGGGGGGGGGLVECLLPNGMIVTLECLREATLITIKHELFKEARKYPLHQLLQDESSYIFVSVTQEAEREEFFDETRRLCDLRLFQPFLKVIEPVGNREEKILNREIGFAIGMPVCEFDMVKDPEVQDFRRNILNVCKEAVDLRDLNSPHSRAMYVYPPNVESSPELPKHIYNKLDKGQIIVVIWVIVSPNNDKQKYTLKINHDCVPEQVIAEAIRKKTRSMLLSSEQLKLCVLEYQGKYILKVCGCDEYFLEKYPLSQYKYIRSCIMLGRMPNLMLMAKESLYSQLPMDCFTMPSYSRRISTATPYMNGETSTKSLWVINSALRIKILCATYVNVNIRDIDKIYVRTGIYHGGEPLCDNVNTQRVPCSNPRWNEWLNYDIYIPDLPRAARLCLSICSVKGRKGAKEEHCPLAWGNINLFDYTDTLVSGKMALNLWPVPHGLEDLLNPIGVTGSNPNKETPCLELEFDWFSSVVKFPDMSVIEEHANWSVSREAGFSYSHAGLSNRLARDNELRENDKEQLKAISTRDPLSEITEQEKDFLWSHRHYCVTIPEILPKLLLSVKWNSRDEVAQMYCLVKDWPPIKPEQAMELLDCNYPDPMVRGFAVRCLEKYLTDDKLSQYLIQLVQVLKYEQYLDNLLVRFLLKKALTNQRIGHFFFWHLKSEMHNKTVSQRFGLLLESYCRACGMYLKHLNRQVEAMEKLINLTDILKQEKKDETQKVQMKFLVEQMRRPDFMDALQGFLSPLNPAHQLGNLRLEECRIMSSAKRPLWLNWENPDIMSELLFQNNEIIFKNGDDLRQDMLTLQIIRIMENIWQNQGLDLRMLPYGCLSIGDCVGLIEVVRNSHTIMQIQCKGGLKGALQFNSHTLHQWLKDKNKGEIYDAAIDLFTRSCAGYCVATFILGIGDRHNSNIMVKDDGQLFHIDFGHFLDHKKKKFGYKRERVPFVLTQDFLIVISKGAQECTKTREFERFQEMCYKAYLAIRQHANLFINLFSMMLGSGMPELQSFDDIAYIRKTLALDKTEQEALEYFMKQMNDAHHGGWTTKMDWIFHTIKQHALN

Structures are written as SMILES.

One experiment addresses PI3K delta (Homo sapiens (Human), UniProt O00329). The experiment can be described thus: Enzymatic PI3K delta isoform inhibition (lipid kinase activity, Kinase-Glo luminescence). Type of experiment: biochemical. To be noted: Enzymatic assay. The protocol:
(§1) 1.1 Test of Lipid Kinase Activity […]
(§2) In a more preferred assay, the kinase reaction is performed in a final volume of 10 μl per well of a low volume non-binding CORNING, 384 well black plate (Cat. No. #3676). The final concentrations of ATP and phosphatidyl inositol (PI) in the assay are 1 μM and 10 μg/mL, respectively. The reaction is started by the addition of ATP.
The components of the assay are added per well as follows:
The Z′ value is a universal measurement of the robustness of an assay. A Z′ between 0.5 and 1.0 is considered an excellent assay.
IC50 is determined by a four parameter curve fitting routine that comes along with “excel fit”. A four parameter logistic equation is used to calculate IC50 values (IDBS XLfit) of the percentage inhibition of each compound at 8 concentrations (usually 10, 3.0, 1.0, 0.3, 0.1, 0.030, 0.010 and 0.003 μM). Alternatively, IC50 values are calculated using idbsXLfit model 204, which is a 4 parameter logistic model.
(§3) Yet alternatively, for an ATP depletion assay, compounds of the formula I to be tested are dissolved in DMSO and directly distributed into a white 384-well plate at 0.5 μl per well. […] The stopped reaction is incubated for 5 minutes and the remaining ATP is then detected via luminescence. IC50 values are then determined.
A general note: In Kinase-Glo more light means more ATP remaining.

The target of a further experiment is PI3K alpha (Homo sapiens (Human), UniProt P42336). Description: Enzymatic PI3K alpha isoform inhibition (lipid kinase activity, Kinase-Glo luminescence). The experiment is classed as biochemical. To be noted: Enzymatic assay. On the procedure:
as §1, §2
The components of the assay are added per well as follows: […]
IC50 is determined by a four parameter curve fitting routine that comes along with “excel fit”. […] Alternatively, IC50 values are calculated using idbsXLfit model 204, which is a 4 parameter logistic model.
as §3

For the molecule `CN(C)c1cc(N2CCOc3ccc(O[C@H]4CCN(C(=O)C5CCOCC5)C4)cc32)cnc1S(C)(=O)=O` [Example B78, {(S)-3-[4-(5-Dimethylamino-6-methanesulfonyl-pyridin-3-yl)-3,4-dihydro-2H-benzo[1,4]oxazin-6-yloxy]-pyrrolidin-1-yl}-(tetrahydro-pyran-4-yl)-methanone], the IC50 (usually the point on the concentration scale where inhibition reaches its midpoint) against PI3K delta stood at 23 nM.
For `COc1ncc(N2CCOc3ccc(O[C@H]4CCN(C(=O)c5cn(C)cn5)C4)cc32)cc1C#N` [Example D1, (S)-2-methoxy-5-(6-((1-(1-methyl-1H-imidazole-4-carbonyl)pyrrolidin-3-yl)oxy)-2H-benzo[b][1,4]oxazin-4(3H)-yl)nicotinonitrile], the IC50 on PI3K alpha amounted to 424 nM.
